The values that follow are results of earlier work, collected in patent publication US20220409620A1, “REDUCING IMMUNOGENICITY TO PEGLOTICASE” (Horizon Pharma Rheumatology LLC, priority 2016, published 2022).

SMILES strings stand for the structures.

The subject of this series is patients. As to conditions: prophylaxis of gout; cited from earlier work.

Turning to `COc1cc2c(c(OC)c1OC)-c1ccc(OC)c(=O)cc1[C@@H](NC(C)=O)CC2` [colchicine], the diarrhea is on record as 23% and the pharyngolaryngeal pain is given as 3%.
